Earlier results as cited in article PMC7589491, “Biomimetic Artificial Membrane Permeability Assay over Franz Cell Apparatus Using BCS Model Drugs” (Pharmaceutics, 2020).

Details: fraction of dose absorbed in humans; cited from earlier work

Cn1c(=O)c2[nH]cnc2n(C)c1=O [Theophylline]
Fa(%): 97%
